## scFv variants of Ab-14 (light chain) against a SARS-CoV-2 spike peptide

From the AlphaSeq antibody data of Engelhart et al. 2022 (doi:10.1038/s41597-022-01779-4), copy in the FLAb collection.

Target peptide (SARS-CoV-2 spike, HR2 region): PDVDLGDISGINAS

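Variants in AAYL50 differ from the parent at up to three CDR positions; double and triple changes were sampled at random. AlphaSeq pools MATa yeast showing the antibodies with MATalpha yeast showing the peptide. After mating in shaken culture at 30 °C for 16 h, diploids were selected and their barcode pairs sequenced. Read counts were normalised to the haploid input and turned into Kd by a linear fit to BCL2-family pairs of known affinity, for each replicate. There are three technical replicates.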

The variants keep the heavy chain, the linker and the frameworks of Ab-14 (scFv order VH, a 15-residue (Gly4Ser)3 linker, VL).
VH: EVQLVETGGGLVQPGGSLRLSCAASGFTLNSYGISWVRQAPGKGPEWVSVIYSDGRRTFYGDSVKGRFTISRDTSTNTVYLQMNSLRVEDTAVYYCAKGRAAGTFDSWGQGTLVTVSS
VL: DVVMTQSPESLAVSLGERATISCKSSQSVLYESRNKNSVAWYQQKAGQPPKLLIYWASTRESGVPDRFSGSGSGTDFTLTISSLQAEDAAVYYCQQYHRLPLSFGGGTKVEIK

Each variant is given by its three light chain CDRs, as the data file delimits them; those of the parent are KSSQSVLYESRNKNSVA, WASTRES, QQYHRLPLS.
Scale: log10 of Kd in nM, estimated from mating counts; low values are strong binders.
Averages over replicates are reported, and they cover detected replicates only.
Where no diploid with the target was found in any replicate, the entry reads "no signal": below detection, most likely a poor binder, though not proof of it.
Parent in this assay: reference entry 0.65, copy in this library 1.68.
Three control strains display no target. For library AAYL50, 18% of the pairings with them gave a signal, with a median of 4.19 and one signal in twenty below 2.99, so weak values seen in few replicates may be background.

CDR-L1 | CDR-L2 | CDR-L3 | mean log10 Kd (nM) | seen in
KSSQSVLYEGRNKNSVA | WCSTRES | QQYHRLPLD | 2.39 | 3/3
KSSQSVLYESRNKISVA | WASTRES | QQRHRIPLS | no signal | 0/3
KSSQSVLYCSRNKNSVA | WASTRLS | QQYHRLPLS | 4.16 | 2/3
GSSQSVLSESRNKNSVA | WKSTRES | QQYHRLPLS | 4.03 | 3/3
KSSQSVLYKSRNKASVA | WASTRQS | QQYHRLPLS | no signal | 0/3
KSSQSVLYESRNLNKVA | WASTRES | QQYHRLPLH | 3.46 | 2/3
KSSQSVLYESRNKNLIA | WASNRES | QQYHRLPLS | no signal | 0/3
KSSQSVLYESRNKDFVA | WASERES | QQYHRLPLS | 4.32 | 2/3
KSSQSVLYESENLNSVA | WASTRES | QIYHRLPLS | 4.09 | 1/3
KSSQSVQYESCNKNSVA | WASTLES | QQYHRLPLS | 1.90 | 3/3
KSPSSVLYESRNKNSVA | WASTRES | QQYHRLMLS | 4.29 | 1/3
KSSQSVLYESRNKNSVA | WASTCWS | QQKHRLPLS | no signal | 0/3
KSSQSVMYESRNKNSVA | WMSTRES | QQYHRLPLV | 2.45 | 3/3
KSSYSVLYESRNKNSVA | WASQRES | EQYHRLPLS | 1.66 | 3/3
KSSRSVLYENRLKNSVA | WASTRES | QQYHRLPLS | 1.35 | 3/3
KSSQSVLMHSRNKCSVA | WASTRES | QQYHRLPLS | 1.78 | 3/3
KSSQSTLYESRNKNSVA | WASEHES | QQYHRLPLS | no signal | 0/3
KSLQSVLYESANKNSVA | WASTRES | QQYHRLPLS | no signal | 0/3
KSSQSVLYESRNKQSVA | WASTRES | QYYHRLPLF | 3.64 | 1/3
KSSQSVLYESRNKNSVA | WASTREC | QQPVRLPLS | no signal | 0/3
KSSQSVLYESRNKNDVA | WASTRFS | QQYHRLPLF | no signal | 0/3
KSSQSVLDESRNKNSVA | WESTREM | QQYHRLPLS | 0.17 | 3/3
KSSQSGLYESRNKNSVA | SASTRES | QQYHRLPLS | 0.49 | 3/3
KSSQSVLYESRNKNSVA | WASTHES | QQTHRLPLS | 4.68 | 2/3
KFSQSVLYESRNKPSVA | WASTRES | QQYHRLSLS | 5.23 | 2/3
KSSQSVLYESRNKTSVA | WASIRES | QQYVRLPLS | 1.67 | 3/3
KSSMSVLYESRNKNIVA | WASTRES | QQYHLLPLS | no signal | 0/3
KSSQSVLYESRNKMIVA | WASTRES | QQYHRLPLS | no signal | 0/3
KSQQSVLYESRNKNSVA | WASTRES | QQYVRLQLS | 1.36 | 3/3
KSSQSVYYESFNKNSVA | WASTRES | QQLHRLPLS | no signal | 0/3
KMSQSVLYESRNKNSVA | WASTRES | QQYHRLMLP | 1.51 | 3/3
KSSQSVLYESRNKNSVA | YASTEES | QQYHRLPYS | 3.51 | 1/3
KSSQHVLYVSRNKKSVA | WASTRES | QQYHRLPLS | 3.56 | 1/3
KSSQSILYESRRKNSVA | WAYTRES | QQYHRLPLS | 3.18 | 3/3
KSSQSVLYESRNKNSVA | WFSTRES | CQYHRLPLS | no signal | 0/3

The remaining entries, values ahead:

mean log10 Kd (nM) | seen in | CDR-L1 | CDR-L2 | CDR-L3
1.37 | 3/3 | KSSQSVLYDSRNKNSVA | WASTRES | QVYHRLPLS
no signal | 0/3 | KSSQSVLYESRNKYSVA | WASTRIS | QQRHRLPLS
1.85 | 3/3 | KSSQSVLYESYNKNSVA | WASTRES | QQYHRLPLW
2.34 | 3/3 | KRSQSQLYESRNKNSVA | WASTRES | QQYHRLPLS
no signal | 0/3 | KSSQSVLYESRNKNQVA | PASTRES | QQYHRLPLS
no signal | 0/3 | KSSQSVLYESRNKNSVA | LASTRES | QQRHALPLS
5.05 | 1/3 | KSSASVLYESRNKNSVA | WFSTIES | QQYHRLPLS
5.29 | 1/3 | KRMQSVLYESRNKNSVE | WASTRES | QQYHRLPLS
1.40 | 3/3 | KSSQSVLYEFRNKNSVA | MASTRES | VQYHRLPLS
3.72 | 1/3 | KNSQSVLYESRNKNSVA | WQSTRES | QQQHRLPLS
1.57 | 3/3 | KSFQSVLYESRNKNSVA | WASTRES | QQYVRLPLS
no signal | 0/3 | KSSASVLYESRNKNSVA | WGSTRES | QQYHRLPLK
3.43 | 3/3 | KSSQSVFYESRNKLSVA | WASTREI | QQYHRLPLS
1.34 | 3/3 | KSSQLVLDESRNKNSVA | WASTRWS | QQYHRLPLS
no signal | 0/3 | KSSQSVLYENRNKHSVA | WASLRES | QQYHRLPLS
0.07 | 3/3 | KSSQSVLYESRHKNSVA | AASTRES | CQYHRLPLS
-0.02 | 3/3 | KSPQSVLYESRNKNSVA | EASTRES | QQYHRLPLS
1.62 | 3/3 | KSSQSVLVESRNKNSVA | WAMTRES | QQYHRLPLS
no signal | 0/3 | KSSQSVLYESRNKNSVA | WASTRPS | QQYHRVPKS
no signal | 0/3 | KSSASVLYESRNKNSRA | WASTRES | QQYHTLPLS
3.75 | 2/3 | KSSQSVLYESRNKNSDA | WASSRES | QKYHRLPLS
5.40 | 1/3 | KSSQSVLRESRNKNSVA | WAPTMES | QQYHRLPLS
3.72 | 1/3 | KSSQSVMYESRWKVSVA | WASTRES | QQYHRLPLS
6.35 | 1/3 | KSSNSVLYESRNKNSPA | WMSTRES | QQYHRLPLS
no signal | 0/3 | KSSSSVLYESRNKNSVK | WISTRES | QQYHRLPLS
1.58 | 3/3 | KSSGSVLYESRNKNSVA | WASTRES | QQYHHLPYS
3.62 | 3/3 | KSSQSVLYESRNKNSVA | WADFRES | QQYHRLPRS
2.76 | 3/3 | KSSQCVLYESRNKNSVA | WASTREP | QQYHALPLS
4.06 | 3/3 | KSSQSVLYESRNKNSVL | GASTRES | QQYHRLPLS
2.95 | 3/3 | KSSQSVLYNSSNKNSVA | WASTRES | QQYHRMPLS
1.01 | 3/3 | KSSQSVLYPSRNKNSVA | WASTRES | QCYHRLPLS
1.37 | 3/3 | KSSQTVLYESRNKNSVA | WASTKES | QQYHRLHLS
5.53 | 1/3 | KSSQSVFYESRNKNCVA | WASTRES | QQYHRVPLS
0.28 | 3/3 | KVSQSVLYDSRNKNSVA | WASTRTS | QQYHRLPLS
no signal | 0/3 | KSSQSVWYESRNKNSVA | WASTRES | QQYHAIPLS
1.66 | 3/3 | KSLQSVLYESRNKNSVA | WASTRQQ | QQYHRLPLS

Repeated from above, the 8 best binders with a signal in all replicates:

{"CDR-L1": "KSPQSVLYESRNKNSVA", "CDR-L2": "EASTRES", "CDR-L3": "QQYHRLPLS", "mean log10 Kd (nM)": "-0.02", "seen in": "3/3"}
{"CDR-L1": "KSSQSVLYESRHKNSVA", "CDR-L2": "AASTRES", "CDR-L3": "CQYHRLPLS", "mean log10 Kd (nM)": "0.07", "seen in": "3/3"}
{"CDR-L1": "KSSQSVLDESRNKNSVA", "CDR-L2": "WESTREM", "CDR-L3": "QQYHRLPLS", "mean log10 Kd (nM)": "0.17", "seen in": "3/3"}
{"CDR-L1": "KVSQSVLYDSRNKNSVA", "CDR-L2": "WASTRTS", "CDR-L3": "QQYHRLPLS", "mean log10 Kd (nM)": "0.28", "seen in": "3/3"}
{"CDR-L1": "KSSQSGLYESRNKNSVA", "CDR-L2": "SASTRES", "CDR-L3": "QQYHRLPLS", "mean log10 Kd (nM)": "0.49", "seen in": "3/3"}
{"CDR-L1": "KSSQSVLYPSRNKNSVA", "CDR-L2": "WASTRES", "CDR-L3": "QCYHRLPLS", "mean log10 Kd (nM)": "1.01", "seen in": "3/3"}
{"CDR-L1": "KSSQLVLDESRNKNSVA", "CDR-L2": "WASTRWS", "CDR-L3": "QQYHRLPLS", "mean log10 Kd (nM)": "1.34", "seen in": "3/3"}
{"CDR-L1": "KSSRSVLYENRLKNSVA", "CDR-L2": "WASTRES", "CDR-L3": "QQYHRLPLS", "mean log10 Kd (nM)": "1.35", "seen in": "3/3"}